Source: US8455479B2, “Heterocyclic compounds” (Panacea Biotec Limited, priority 2008, dated 2013)

Protein sequences, listed by entry. Tags and fused reporters are not part of them.
UniProt P27487, whole entry: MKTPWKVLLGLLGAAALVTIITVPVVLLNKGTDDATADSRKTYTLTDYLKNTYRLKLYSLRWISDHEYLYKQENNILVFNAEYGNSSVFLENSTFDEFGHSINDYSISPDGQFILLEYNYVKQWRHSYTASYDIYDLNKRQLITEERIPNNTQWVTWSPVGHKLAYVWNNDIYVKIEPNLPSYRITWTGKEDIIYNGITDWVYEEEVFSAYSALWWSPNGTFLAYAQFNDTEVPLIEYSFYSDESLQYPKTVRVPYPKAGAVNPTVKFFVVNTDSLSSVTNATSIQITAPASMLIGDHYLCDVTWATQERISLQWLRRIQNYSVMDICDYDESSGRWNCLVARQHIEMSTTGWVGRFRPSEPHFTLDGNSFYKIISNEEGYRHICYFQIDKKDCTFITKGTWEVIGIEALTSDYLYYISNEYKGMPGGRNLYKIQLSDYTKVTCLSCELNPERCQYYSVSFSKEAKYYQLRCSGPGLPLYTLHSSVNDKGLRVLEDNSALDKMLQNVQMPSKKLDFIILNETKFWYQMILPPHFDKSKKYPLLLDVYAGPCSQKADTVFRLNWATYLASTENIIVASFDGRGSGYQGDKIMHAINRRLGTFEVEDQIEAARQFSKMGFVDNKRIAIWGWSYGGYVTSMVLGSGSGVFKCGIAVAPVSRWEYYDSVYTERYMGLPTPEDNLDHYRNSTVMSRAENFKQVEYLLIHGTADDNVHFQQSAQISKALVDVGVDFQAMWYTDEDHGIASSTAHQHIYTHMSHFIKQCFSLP

Biological target: DPP-IV (UniProt P27487)
Test: In-vitro DPP-IV assay (cleavage of pNA from Gly-Pro-pNA)
Conditions: tested form: trifluoroacetate; for % Inhibition: DPP-IV inhibition at 100 nM; for IC50: DPP-IV

Cc1nnc2n1-c1ccccc1CN(C(=O)C[C@H](N)Cc1cc(F)c(F)cc1F)C2
% Inhibition: Y (Y: 50-100% DPP-IV inhibition at 100 nM) | IC50: 1 to 100 nM

N[C@@H](CC(=O)N1Cc2ccccc2-n2cnc(C(=O)N3CCOCC3)c2C1)Cc1cc(F)c(F)cc1F
% Inhibition: Y (Y: 50-100% DPP-IV inhibition at 100 nM) | IC50: 1 to 100 nM

CCOC(=O)CN1C(=O)CN(C(=O)C[C@H](N)Cc2cc(F)c(F)cc2F)Cc2ccccc21
% Inhibition: Y (Y: 50-100% DPP-IV inhibition at 100 nM) | IC50: 1 to 100 nM

N[C@@H](CC(=O)N1CC(=O)N(CC(F)(F)F)c2ccccc2C1)Cc1cc(F)c(F)cc1F
% Inhibition: Y (Y: 50-100% DPP-IV inhibition at 100 nM) | IC50: 1 to 100 nM

N[C@@H](CC(=O)N1CC(=O)N(CC(=O)N2CCC(F)(F)C2)c2ccccc2C1)Cc1cc(F)c(F)cc1F
% Inhibition: Y (Y: 50-100% DPP-IV inhibition at 100 nM) | IC50: 1 to 100 nM

N[C@@H](CC(=O)N1Cc2ccccc2-n2cnnc2C1)Cc1cc(F)c(F)cc1F
% Inhibition: Y (Y: 50-100% DPP-IV inhibition at 100 nM) | IC50: 1 to 100 nM

CCN(CC)C(=O)c1ncn2c1CN(C(=O)C[C@H](N)Cc1cc(F)c(F)cc1F)Cc1ccccc1-2
% Inhibition: Y (Y: 50-100% DPP-IV inhibition at 100 nM) | IC50: 1 to 100 nM
